Results reported in patent publication US7198811B2, “Compositions for the preservation of fruits and vegetables” (University of Guelph, priority 2002, dated 2007).

Test system: Vista Cherries
Assay: Postharvest dips of compositions or individual components on Vista cherries
Assay type: in vivo
Settings: dipped 2.5 min, concentration as printed per treatment; stored 4° C. in air

Cc1c(C)c2c(c(C)c1O)CC[C@@](C)(CCC[C@H](C)CCC[C@H](C)CCCC(C)C)O2 [α-tocopherol]
Soluble Solids (%) 2 weeks: 16.1%
